# Assay results taken from US5648367A, “Aminoalkyloximes” (Hoechst Marion Roussel, Inc., priority 1995, dated 1997).
# Test system: Serotonin Reuptake
# Assay: in vitro inhibition of serotonin uptake ([3H]-5HT uptake into whole rat brain synaptosomes)
# Type: biochemical, rat (Male CR Wistar rats)
# Settings: rat whole brain (minus cerebellum) synaptosomes; 50 nM [3H]-5HT; 5 minutes at 37° C.; pH 7.4; log probit analysis
# Excerpt: The aminoalkyloximes of the present invention are useful as agents for the alleviation of depression and affective disorders such as obsessive compulsive disorders, particularly those associated with serotonergic hypofunction. See, for example, W. K. Goodman, et al., Archives of General Psychiatry, 47, 577 (1990). […] In this assay, a modification of the tests described by A. S. Horn and R. C. A. M. Trace, British Journal of Pharmacology, 51, 399 (1974), A. Nagy and A. V. Delgado-Escueta, Journal of Neurochemistry, 43, 1114 (1984) and P. R. Dunkley, et al., Brain Research, 372, 115 (1986), the following reagents are prepared and employed:
# Male CR Wistar rats (100-125 g)
# 3. Sucrose solution: 0.32M sucrose containing 5 mM HEPES and 0.1 mM EDTA; pH to 7.3 using Tris base.
# 4. A 0.1 mM stock solution of serotonin creatinine SO4 is made up in 0.01N HCl. This is used to dilute the specific activity of radiolabeled 5HT.
# 5. 5-[1,2-^3 H(N)]-Hydroxytryptamine creatinine sulfate (serotonin), specific activity 20-30 Ci/mmol, is used. The final desired concentration of [^3 H]-5HT in the assay is 50 nM. The dilution factor is 0.8. The KHBB is made up to contain 62.5 nM of [^3 H]-5HT.
# 6. […]
row,SMILES,IC50 [nM]
1,"CN(C)CCC=C1c2ccccc2CCc2ccccc21 [Amitriptyline, reference compound]",91
2,"CNCCC(Oc1ccc(C(F)(F)F)cc1)c1ccccc1 (centres unmarked) [Fluoxetine, reference compound]",42
